Test results from article doi:10.1101/2024.12.05.627101v1 (biorxiv, 2024).

The chains behind the UniProt entries cited, without tags or fusion partners. Residues count along the entry.
UniProt P41594, 21-1180 isoform P41594-2: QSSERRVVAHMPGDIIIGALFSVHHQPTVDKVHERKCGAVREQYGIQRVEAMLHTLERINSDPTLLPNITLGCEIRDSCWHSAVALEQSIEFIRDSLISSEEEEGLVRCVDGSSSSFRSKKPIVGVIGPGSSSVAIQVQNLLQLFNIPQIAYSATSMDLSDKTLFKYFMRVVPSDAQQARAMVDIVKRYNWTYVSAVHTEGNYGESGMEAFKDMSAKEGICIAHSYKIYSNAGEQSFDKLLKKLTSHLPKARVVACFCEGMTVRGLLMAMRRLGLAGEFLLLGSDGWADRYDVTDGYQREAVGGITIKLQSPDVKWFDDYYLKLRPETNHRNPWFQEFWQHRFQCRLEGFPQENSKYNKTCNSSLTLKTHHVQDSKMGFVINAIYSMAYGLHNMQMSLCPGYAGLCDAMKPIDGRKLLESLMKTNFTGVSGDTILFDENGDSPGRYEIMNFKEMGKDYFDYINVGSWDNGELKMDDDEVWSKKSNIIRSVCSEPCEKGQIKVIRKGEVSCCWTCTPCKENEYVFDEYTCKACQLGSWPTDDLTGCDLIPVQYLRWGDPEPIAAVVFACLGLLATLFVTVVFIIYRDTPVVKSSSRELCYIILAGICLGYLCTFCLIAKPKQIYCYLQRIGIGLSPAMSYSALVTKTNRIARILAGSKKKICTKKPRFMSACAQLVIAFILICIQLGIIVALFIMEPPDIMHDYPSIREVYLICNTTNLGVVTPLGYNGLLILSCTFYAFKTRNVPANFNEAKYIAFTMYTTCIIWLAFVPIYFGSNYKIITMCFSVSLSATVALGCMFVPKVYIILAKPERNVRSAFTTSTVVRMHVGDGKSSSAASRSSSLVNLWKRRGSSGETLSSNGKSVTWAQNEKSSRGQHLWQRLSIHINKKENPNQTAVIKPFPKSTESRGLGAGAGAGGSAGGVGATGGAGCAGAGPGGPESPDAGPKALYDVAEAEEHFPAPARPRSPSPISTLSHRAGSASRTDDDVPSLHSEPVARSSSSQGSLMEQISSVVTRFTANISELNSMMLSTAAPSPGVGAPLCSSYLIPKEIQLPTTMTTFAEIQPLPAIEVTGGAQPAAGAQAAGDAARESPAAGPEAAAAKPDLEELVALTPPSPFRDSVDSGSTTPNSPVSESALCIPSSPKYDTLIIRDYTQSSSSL

Biological target: human mGlu5 (hmGlu5) (Homo sapiens, UniProt P41594)
Test: whole-cell [3H]methoxy-PEPy inhibition binding
Type: cell-based
Settings: ~3 nM [3H]methoxy-PEPy, RT, pH 7.4, 1 h; one-site competitive fit, MPEP site

- pKi: 5.24 ± 0.07
Substance: 5-methyl-2-(phenylethynyl)pyridine [5MPEP]
